Results published in PMC3193285 (ACS Medicinal Chemistry Letters, 2011).

Biological target: T1, NOD1 (Homo sapiens, UniProt Q9Y239)
T1 sequence (Q9Y239 1-953): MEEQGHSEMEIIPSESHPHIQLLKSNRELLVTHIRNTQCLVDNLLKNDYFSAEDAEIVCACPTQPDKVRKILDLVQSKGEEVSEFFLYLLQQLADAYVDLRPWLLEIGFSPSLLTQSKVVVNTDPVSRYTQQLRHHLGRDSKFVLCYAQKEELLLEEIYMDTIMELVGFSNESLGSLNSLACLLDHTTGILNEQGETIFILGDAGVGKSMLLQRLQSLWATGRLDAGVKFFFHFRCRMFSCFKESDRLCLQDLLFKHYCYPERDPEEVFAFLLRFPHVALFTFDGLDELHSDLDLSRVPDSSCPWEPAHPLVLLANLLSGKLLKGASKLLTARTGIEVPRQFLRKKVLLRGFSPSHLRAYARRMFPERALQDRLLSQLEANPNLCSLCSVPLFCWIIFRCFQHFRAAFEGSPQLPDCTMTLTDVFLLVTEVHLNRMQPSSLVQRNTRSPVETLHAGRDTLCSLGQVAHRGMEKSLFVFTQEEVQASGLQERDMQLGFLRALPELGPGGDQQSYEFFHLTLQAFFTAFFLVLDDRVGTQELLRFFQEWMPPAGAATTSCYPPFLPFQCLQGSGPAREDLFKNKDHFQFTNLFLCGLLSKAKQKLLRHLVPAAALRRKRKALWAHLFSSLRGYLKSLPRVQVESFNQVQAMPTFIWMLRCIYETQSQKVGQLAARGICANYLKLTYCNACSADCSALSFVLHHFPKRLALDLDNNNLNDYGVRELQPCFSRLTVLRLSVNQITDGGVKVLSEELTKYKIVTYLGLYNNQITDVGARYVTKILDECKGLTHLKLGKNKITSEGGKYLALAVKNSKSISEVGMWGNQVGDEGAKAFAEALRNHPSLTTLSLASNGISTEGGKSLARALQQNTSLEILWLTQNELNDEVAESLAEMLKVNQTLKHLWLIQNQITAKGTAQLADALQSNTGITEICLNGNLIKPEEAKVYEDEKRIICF
Type: cell-based

Compound | selectivity for NOD1-dependent activation of NF-κB (over NOD2- and TNF-α-induced NF-κB activation) [fold] | decrease of NOD1 inhibitory activity / potency (relative to the parent analogue 1c series, Table 3) [fold]
Cc1ccc(S(=O)(=O)n2c(N)nc3ccccc32)cc1 [1c] | > 36 | –
Nc1nc2ccccc2n1Cc1ccc(Cl)cc1 [10c] | – | 15
